{
  "source": "patent US9579408B2",
  "about": "“PET/SPECT agents for applications in biomedical imaging” (Washington University, priority 2011, dated 2017)",
  "type_in_all_cases": "cell-based, human",
  "settings_in_all_cases": "presence of LY335979 (1 μM)",
  "key": {"KB-8-5-11 (++Pgp) cells": {"tested_on": "KB-8-5-11 (++Pgp) cells", "test": "Cell transport study, cellular accumulation in KB-8-5-11 cells"}, "MDR KB-8-5 (+Pgp) cells": {"tested_on": "MDR KB-8-5 (+Pgp) cells", "test": "Cell transport study, cellular accumulation in MDR KB-8-5 cells"}, "MCF-7/MDR1 (+Pgp) cells": {"tested_on": "MCF-7/MDR1 (+Pgp) cells", "test": "Cell transport study, cellular accumulation in stably transfected MCF-7/MDR1 cells"}},
  "note": "“Also recorded” adds a separate entry of the source.",
  "data": [
    {"compound": "CC(C)Oc1cccc2c1[O][67Ga+][O]c1c(cccc1OC(C)C)C=NCC(C)(C)CNCCNCC(C)(C)CN=C2.[I-]", "note": "[Agent 1A, [ENBDMP-3-isopropoxy-PI-^67Ga]^+]", "values": [
      {"measurement": "effect of Pgp inhibitor on cellular accumulation", "setting": "KB-8-5-11 (++Pgp) cells", "value": "enhanced accumulation; also recorded: induced accumulation"},
      {"measurement": "effect of Pgp inhibitor on cellular accumulation", "setting": "MDR KB-8-5 (+Pgp) cells", "value": "enhanced accumulation; also recorded: induced accumulation"},
      {"measurement": "effect of Pgp inhibitor on cellular accumulation", "setting": "MCF-7/MDR1 (+Pgp) cells", "value": "enhanced accumulation; also recorded: induced accumulation"}
    ]}
  ]
}
